Assay results taken from BindingDB's records for 2296026.

By UniProt entry, the sequences of proteins in these tests, tags left out. Where a name states a change or a piece, a line headed by the entry shows the natural chain unless it says otherwise. Chains listed by the source or under a name are the forms on record and can include a tag or linker. Residues count along the entry.
UniProt P08482: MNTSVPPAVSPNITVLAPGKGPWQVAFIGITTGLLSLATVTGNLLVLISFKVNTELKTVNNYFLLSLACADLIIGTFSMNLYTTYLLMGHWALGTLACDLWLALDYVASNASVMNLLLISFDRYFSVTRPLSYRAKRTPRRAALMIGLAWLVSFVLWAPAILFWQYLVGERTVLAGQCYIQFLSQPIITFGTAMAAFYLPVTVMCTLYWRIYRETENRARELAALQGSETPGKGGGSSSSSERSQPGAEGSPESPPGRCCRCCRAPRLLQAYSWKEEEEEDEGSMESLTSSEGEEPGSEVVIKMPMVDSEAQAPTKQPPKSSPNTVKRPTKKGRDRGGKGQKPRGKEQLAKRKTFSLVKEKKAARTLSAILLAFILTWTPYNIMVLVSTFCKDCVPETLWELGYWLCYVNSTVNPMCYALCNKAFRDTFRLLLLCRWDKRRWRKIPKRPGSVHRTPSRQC
UniProt P08483, whole entry: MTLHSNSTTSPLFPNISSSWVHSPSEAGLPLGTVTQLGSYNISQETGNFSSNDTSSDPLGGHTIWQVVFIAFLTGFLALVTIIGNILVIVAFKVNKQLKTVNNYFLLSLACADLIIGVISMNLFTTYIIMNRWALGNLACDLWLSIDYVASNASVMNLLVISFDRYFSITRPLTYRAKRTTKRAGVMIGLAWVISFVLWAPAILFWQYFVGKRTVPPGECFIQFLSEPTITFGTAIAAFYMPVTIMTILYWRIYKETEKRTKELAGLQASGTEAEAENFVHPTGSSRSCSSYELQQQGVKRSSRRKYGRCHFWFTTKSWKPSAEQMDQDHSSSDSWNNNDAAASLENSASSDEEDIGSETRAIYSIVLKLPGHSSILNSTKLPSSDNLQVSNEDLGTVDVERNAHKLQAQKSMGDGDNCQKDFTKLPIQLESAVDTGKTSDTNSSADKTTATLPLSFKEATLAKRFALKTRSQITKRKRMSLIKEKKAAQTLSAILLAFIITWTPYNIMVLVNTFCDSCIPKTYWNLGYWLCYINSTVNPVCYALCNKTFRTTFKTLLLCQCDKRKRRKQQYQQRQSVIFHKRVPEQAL
UniProt P08485, 3-478 with tags or gaps: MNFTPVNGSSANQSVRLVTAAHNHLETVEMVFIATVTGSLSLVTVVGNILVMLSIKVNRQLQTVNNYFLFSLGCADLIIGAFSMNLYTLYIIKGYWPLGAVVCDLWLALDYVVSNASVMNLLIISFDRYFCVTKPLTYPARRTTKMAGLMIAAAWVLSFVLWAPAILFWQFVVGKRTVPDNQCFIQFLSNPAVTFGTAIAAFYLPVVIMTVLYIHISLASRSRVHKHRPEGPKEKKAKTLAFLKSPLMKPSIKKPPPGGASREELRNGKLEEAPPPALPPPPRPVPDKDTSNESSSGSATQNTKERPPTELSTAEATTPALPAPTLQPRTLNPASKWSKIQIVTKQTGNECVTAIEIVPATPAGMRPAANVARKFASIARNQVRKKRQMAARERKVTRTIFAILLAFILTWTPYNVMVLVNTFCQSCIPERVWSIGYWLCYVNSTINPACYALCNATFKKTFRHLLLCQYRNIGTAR
UniProt P08911, whole entry: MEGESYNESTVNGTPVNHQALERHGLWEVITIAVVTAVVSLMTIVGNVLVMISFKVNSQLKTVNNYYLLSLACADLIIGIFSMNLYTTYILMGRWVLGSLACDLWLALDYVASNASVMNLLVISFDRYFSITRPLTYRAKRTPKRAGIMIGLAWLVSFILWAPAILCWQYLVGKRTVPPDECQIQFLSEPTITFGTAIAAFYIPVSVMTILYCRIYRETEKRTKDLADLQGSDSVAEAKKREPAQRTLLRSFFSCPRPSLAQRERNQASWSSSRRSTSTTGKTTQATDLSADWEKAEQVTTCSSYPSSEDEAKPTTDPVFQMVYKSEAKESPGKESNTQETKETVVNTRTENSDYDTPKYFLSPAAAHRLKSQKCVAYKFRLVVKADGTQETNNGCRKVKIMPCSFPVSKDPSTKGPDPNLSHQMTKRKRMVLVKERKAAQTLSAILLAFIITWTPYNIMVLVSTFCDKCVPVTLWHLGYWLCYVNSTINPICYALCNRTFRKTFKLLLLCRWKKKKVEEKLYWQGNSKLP
UniProt P10980, whole entry: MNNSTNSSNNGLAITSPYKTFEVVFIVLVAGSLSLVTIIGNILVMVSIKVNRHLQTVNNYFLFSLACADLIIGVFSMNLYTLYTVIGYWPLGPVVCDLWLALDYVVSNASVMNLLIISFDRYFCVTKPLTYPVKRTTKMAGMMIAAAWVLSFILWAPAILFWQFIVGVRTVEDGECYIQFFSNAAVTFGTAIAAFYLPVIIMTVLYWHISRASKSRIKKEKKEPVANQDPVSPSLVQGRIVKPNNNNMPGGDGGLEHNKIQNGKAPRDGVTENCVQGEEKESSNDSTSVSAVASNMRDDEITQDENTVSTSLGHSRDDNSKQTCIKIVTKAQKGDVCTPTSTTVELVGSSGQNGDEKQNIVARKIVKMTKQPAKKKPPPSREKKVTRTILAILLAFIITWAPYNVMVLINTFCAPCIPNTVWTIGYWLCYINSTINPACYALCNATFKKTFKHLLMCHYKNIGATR

Target: Muscarinic acetylcholine receptor M1/M2/M3/M4/M5 (UniProt P08482+P08483+P08485+P08911+P10980)
Assay: ASSAY_NAME: ChEMBL_138261 (CHEMBL743978) […]

C[N+]12CCC(CC1)C(OC(=O)C(O)(CN1CCOCC1)c1ccccc1)C2 (stereo unspecified)
Ki: 3.98 µM
